According to patent publication US7790365B2, “Assays for modulators of parkin activity using S5a as a parkin substrate” (Elan Pharma International Limited, priority 2007, dated 2010):

Experiments:
S5a [1] = assay: ubiquitination assay of E3 ligases using S5a as the substrate; type: biochemical; settings: 0.2 mg/mL E3, 200 nM S5a, 1 hour at 37° C., Western blot
Procedure: For each E3 ligase, a ubiquitination assay using S5a as the substrate was carried out. Briefly, the ubiquitination reaction contained 50 nM E1, 1 mM MgATP, 5 μM UbcH7, 0.2 mg/mL E3, 200 nM ubiquitin, and 200 nM S5a. Ubiquitination reactions were incubated for 1 hour at 37° C. and samples were taken at time 0, 30′ and 60′. Samples were run on SDS-PAGE, transferred to immobilon and Western blotted using monoclonal antibody to S5a (BioMol).

S5a [2] = assay: thermal denaturation of E3 ligases (S5a ubiquitination after pre-incubation); type: biochemical
Procedure: To characterize the thermal denaturation properties E3 ligases, the E3 was pre-incubated for 90 minutes at a temperature ranging from 4° C. to 60° C. (Mdm2 and Nedd4 at 4, 37, 45, 50 and 60° C.; Murf1 at 4, 37, 50, 60, 70 and 80° C.; E6AP at 37, 39, 41, 43, and 45° C. At 90 minutes, a pre-mix was made containing 50 nM E1, 1 mM Mg-ATP, 5 μM UbcH7 (UbcH5a for Mdm2 and Murf1), 200 nM ubiquitin and 200 nM S5a. The pre-mix was added to 0.2 mg/mL of E3 ligase and incubated at 37° C. for 60 minutes. Samples were run on SDS-PAGE and assessed by Western blotting using monoclonal antibody to S5a (BioMol).

Substance: GST-Mdm2: GST fusion of p53-binding protein Mdm2, RING E3 ligase
- Ubiquitinated S5a? (S5a [1]): Yes
- S5a ubiquitination activity after thermal pre-incubation (S5a [2]; E3 pre-incubated 90 minutes at 4, 37, 45, 50 and 60° C.): full activity even after pre-incubation at 60 °C; also recorded: retain activity even after pre-incubation at 60 °C
- Thermal Denaturation Temperature (temperature at which approximately 50% of activity was lost) (S5a [2]; E3 pre-incubated 90 minutes at 4° C. to 60° C., then S5a ubiquitination 60 minutes at 37° C.): >60 °C

“Also recorded” adds a separate entry of the source.
